The target of one test is BIR-3 domain of XIAP (Homo sapiens, UniProt P98170). As to the kind of experiment: Fluorescence polarization binding assay, XIAP BIR-3 domain. (Polarisation of emitted light reports the rotation of a fluorescent probe.)
The target of another test is BIR-3 domain of cIAP-1 (Homo sapiens, UniProt Q13490). As to the kind of experiment: Fluorescence polarization binding assay, cIAP-1 BIR-3 domain.

Sequences of proteins named here, by UniProt entry; tags and fusion partners are left off. Residues count along the entry.
UniProt P98170, 241-356 limits assumed: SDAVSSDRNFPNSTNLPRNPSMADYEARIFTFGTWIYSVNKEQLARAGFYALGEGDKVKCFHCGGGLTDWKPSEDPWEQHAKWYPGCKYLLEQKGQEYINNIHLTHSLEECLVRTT
UniProt Q13490, 266-352 limits assumed: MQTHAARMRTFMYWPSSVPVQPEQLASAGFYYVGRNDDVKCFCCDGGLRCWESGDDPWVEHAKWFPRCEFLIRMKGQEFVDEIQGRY

A word on the IC50: it is the concentration at which inhibition is half-maximal.

Regarding `CC(C)[C@H](NC(=O)[C@H](C)N)C(=O)N1CCC[C@H]1C(=O)N[C@@H](Cc1ccccc1)C(=O)O` [AVPF, reference compound], on BIR-3 domain of XIAP, the IC50 lay in the range of 10 to 100 nM.

With `CC[C@H](C)[C@H](NC(=O)[C@@H]1CCCN1C(=O)[C@@H](NC(=O)[C@H](C)N)C(C)C)C(=O)O` [AVPI, reference compound], the half-inhibitory concentration (IC50) at BIR-3 domain of cIAP-1 lay in the range of 10 to 100 nM.
